Assay results reported in patent US12023336B2, “Antiviral drug compounds and composition thereof” (priority 2018, dated 2024).

What was measured:
HIV-1NL4.3 [1] = conditions: CEM-GFP cells
HIV-1NL4.3 [2] = conditions: CEM-GFP, Jurkat J6, U937, hPBMCs

| SMILES | TI (Therapeutic index = CC50/IC50) (HIV-1NL4.3 [1]) | therapeutic index compared with MTX-HYD (HIV-1NL4.3 [1]; HIV-1NL4.3) | Therapeutic Index in T-cell lines, monocytic cell line and primary cells (HIV-1NL4.3 [2]) | Therapeutic Index (TI) better than Methotrexate (MTX) (HIV-1NL4.3 [1]; versus MTX) |
| --- | --- | --- | --- | --- |
| [2H]C([2H])([2H])N(Cc1cnc2nc(N)nc(N)c2n1)c1ccc(C(=O)N[C@@H](CCC(=O)O)C(=O)O)cc1 [MTX-methyl-d3] | 1103.87 | higher therapeutic index than MTX-HYD | – | – |
| CN(Cc1cnc2nc(N)nc(N)c2n1)c1ccc(C(=O)N[C@@H](CCC(=O)O)C(=O)O)cc1 [Methotrexate Hydrate] | – | – | significant Therapeutic Index | approximately 10 fold |
